{
  "source": "paper PMC9688475",
  "about": "“Identification and Analysis of Small Molecule Inhibitors of CRISPR-Cas9 in Human Cells” (Cells, 2022)",
  "tested_on": "HEK293T reporter cells",
  "experiment": "Cytotoxicity assay (CCK-8)",
  "format": "cell-based, human",
  "conditions": "100 μM, 72 h",
  "method": "HEK293T reporter cells were plated in 96-well plates (4–6 × 10^3 cells/well) and cultured for 12 h before the following experiments. The medium was replaced with 100 μL fresh medium containing compounds or DMSO. The medium change was performed 72 h afterward and cytotoxicity was measured by the cell-counting kit-8 (CCK-8, Dojindo Laboratories, Japan) reagent following the manufacturer’s instructions.",
  "data": [
    {"substance": "1-(2-(4-nitrophenyl) hydrazono)-4-bromo-acetophenone [C12]", "values": [
      {"measurement": "cytotoxicity (cell survival, CCK-8)", "result": "no cytotoxicity"}
    ]}
  ]
}
